This note sets out measurements from ChEMBL document CHEMBL1275330, “Rational design, synthesis, and evaluation of new selective inhibitors of microbial class II (zinc dependent) fructose bis-phosphate aldolases” (J Med Chem, 2010).

Substrate in series [1]: CCCCCC(=O)OCCCCN(O)C(=O)COP(=O)(O)O
Particulars: Helicobacter pylori.

Substrate in series [2]: O=C(COP(=O)(O)O)N(O)CCCCO
Particulars: Helicobacter pylori.

Substrate in series [3]: O=C(COP(=O)(O)O)N(O)CCCCO
To be noted: Oryctolagus cuniculus.

B1: Fructose-bisphosphate aldolase (Helicobacter pylori (strain ATCC 700392 / 26695) (Campylobacterpylori)), P56109 (protein)
chain: MLVKGNEILLKAHKEGYGVGAFNFVNFEMLNAIFEAGNEENSPLFIQTSEGAIKYMGIDMAVGMVKTMCERYPHIPVALHLDHGTTFESCEKAVKAGFTSVMIDASHHAFEENLELTSKVVKMAHNAGVSVEAELGRLMGIEDNISVDEKDAVLVNPKEAEQFVKESQVDYLAPAIGTSHGAFKFKGEPKLDFERLQEVKRLTNIPLVLHGASAIPDNVRKSYLDAGGDLKGSKGVPFEFLQESVKGGINKVNTDTDLRIAFIAEVRKVANEDKSQFDLRKFFSPAQLALKNVVKERMKLLGSANKI
Usually Km stands for the substrate concentration at which the rate is half of its maximum. With B1, the Km in series [1] stood at 1 µM; in series [2], 5.5 µM.

B2: Fructose-bisphosphate aldolase A (Oryctolagus cuniculus), P00883 (protein)
chain: MPHSHPALTPEQKKELSDIAHRIVAPGKGILAADESTGSIAKRLQSIGTENTEENRRFYRQLLLTADDRVNPCIGGVILFHETLYQKADDGRPFPQVIKSKGGVVGIKVDKGVVPLAGTNGETTTQGLDGLSERCAQYKKDGADFAKWRCVLKIGEHTPSALAIMENANVLARYASICQQNGIVPIVEPEILPDGDHDLKRCQYVTEKVLAAVYKALSDHHIYLEGTLLKPNMVTPGHACTQKYSHEEIAMATVTALRRTVPPAVTGVTFLSGGQSEEEASINLNAINKCPLLKPWALTFSYGRALQASALKAWGGKKENLKAAQEEYVKRALANSLACQGKYTPSGQAGAAASESLFISNHAY
Turning to B2, in series [3], the Km stood at 400 µM.
